pKi: −log10 of the molar value.
Molecular target: Human immunodeficiency virus type 1 protease (Human immunodeficiency virus 1, UniProt Q72874)
Test: Binding affinity against HIV -1 protease

Q: `C[C@H](N)C(=O)N[C@@H](C)C(=O)N[C@@H](Cc1ccccc1)[C@@H](O)CCC(=O)NC(c1ccccc1)c1ccccc1` was tested. Which pKi did it give?
A: 5.78
